Measurements published in patent US9017730B2 (The Regents of the University of California, priority 2010, dated 2015).

Q: Which “cytotoxicity of block-sequence versus random-sequence copolypeptide” value (mouse keratinocytes) does the source give for “Poly(L-Lysine.HCl)55-b-poly(rac-Leucine)20 [K55(rac-L)20]” here?
A: less cytotoxic

Q: What about the “cytotoxicity in vitro of emulsions” value (human keratinocytes) of the same substance?
A: less cytotoxicity
